Laboratory results reported in BindingDB's records for doi:10.1021/jm800648y (University of Athens, 2008).

By UniProt entry, the sequences of proteins in these tests, tags left out.
UniProt P06493, whole entry, looked up: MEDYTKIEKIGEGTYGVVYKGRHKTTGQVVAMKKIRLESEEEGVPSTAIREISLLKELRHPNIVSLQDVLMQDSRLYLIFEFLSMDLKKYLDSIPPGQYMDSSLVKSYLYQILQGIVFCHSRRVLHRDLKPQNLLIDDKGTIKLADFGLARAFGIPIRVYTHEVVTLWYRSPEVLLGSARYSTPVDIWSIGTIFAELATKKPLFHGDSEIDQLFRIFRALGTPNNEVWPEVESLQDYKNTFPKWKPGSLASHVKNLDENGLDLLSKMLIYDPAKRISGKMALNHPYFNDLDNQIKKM
UniProt P14635, whole entry, looked up: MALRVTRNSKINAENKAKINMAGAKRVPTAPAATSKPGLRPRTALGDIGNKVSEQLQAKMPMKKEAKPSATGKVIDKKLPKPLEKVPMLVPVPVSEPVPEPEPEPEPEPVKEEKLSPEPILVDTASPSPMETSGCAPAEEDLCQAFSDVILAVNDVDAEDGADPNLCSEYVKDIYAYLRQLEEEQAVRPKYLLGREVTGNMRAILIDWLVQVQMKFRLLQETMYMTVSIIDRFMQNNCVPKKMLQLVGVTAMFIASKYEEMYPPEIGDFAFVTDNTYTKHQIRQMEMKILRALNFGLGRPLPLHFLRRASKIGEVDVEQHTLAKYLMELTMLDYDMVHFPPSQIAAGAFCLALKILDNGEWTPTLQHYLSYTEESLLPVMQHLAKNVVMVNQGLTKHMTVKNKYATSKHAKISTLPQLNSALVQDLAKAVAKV

Target: Cyclin-dependent kinase 1/cyclin B1 (Homo sapiens, UniProt P06493+P14635)
Assay: Inhibition of CDK1/cyclin B

| IC50 | SMILES |
| --- | --- |
| 300 nM | O=C1Nc2cc(Br)ccc2C1=C1Nc2ccccc2C1=NOCCN1CCN(CCO)CC1 |
| 600 nM | O=C1Nc2cc(Br)ccc2/C1=C1/Nc2ccccc2/C1=N\OCCN1CCNCC1 |
